Measured values taken from patent US20230365568A1, “PLK1 POLO BOX DOMAIN INHIBITORS AND METHOD OF TREATING CANCER” (The United States of America,as represented by the …, priority 2020, published 2023).

System: HeLa cells
Experiment: Mitotic arrest and antiproliferation in HeLa cells (DAPI staining, cell counts)
Format: cell-based
Settings: 100 μM

Structure (SMILES) | induction of mitotic arrest (rounded cells with apoptotic or aberrant chromosome morphologies)
CCCn1c(=O)c2ccccc2n2c(SC)nnc12 [compound 143, 1-(methylthio)-4-propyl-[1,2,4]triazolo[4,3-a]quinazolin-5(4H)-one] | effectively induced rounded cells with apoptotic or aberrant chromosome morphologies
CCCn1c(=O)c2cccc(F)c2n2c(SC)nnc12 [compound 145, 9-fluoro-1-(methylthio)-4-propyl-[1,2,4]triazolo[4,3-a]quinazolin-5(4H)-one] | effectively induced rounded cells with apoptotic or aberrant chromosome morphologies
